Target: T1, murine eIF4E (28-217) (Mus musculus, UniProt P63073)
T1 construct: (28-217) to phosphorothioate cap analogs, as determined
Assay: Binding affinities for eIF4E by fluorescence quenching
Conditions: for KAS: equilibrium association constant, fluorescence quenching
Protocol: Binding affinities of S analogs for murine eIF4E were determined by fluorescence quenching. Fluorescence titration measurements were carried out on an LS-50B spectrofluorometer (Perkin Elmer Co.) in 50 mM HEPES/KOH (pH 7.2), 100 mM KCl, 0.5 mM EDTA, 1 mM DTT at 20.0±0.2° C. Aliquots of 1 μl increasing concentration of cap analogue solutions were added to 1.4 ml of […] solutions. Fluorescence intensities (excitation at 280 nm with 2.5 nm bandwidth and detection at 337 nm with 4 nm bandwidth and 290 nm cut-off filter) were corrected taking into account sample dilution and the inner filter effect. Equilibrium association constants (KAS) were determined by fitting the theoretical dependence of the fluorescence intensity on the total concentration of cap analogue to the experimental data points according to equation described previously (See A. Niedzwiecka et al., “Biophysical studies of eIF4E cap-binding protein: recognition of mRNA 5′ cap structure and synthetic fragments of eIF4G and 4E-BP1 proteins,” J. Mol. Biol., vol. 319, pp. 615-635 (2002)). The concentration of protein was fitted as a free parameter of equilibrium equation showing amount of “active” protein. The final KAS was calculated as a weighted average of three to ten independent titrations, with the weights taken as the reciprocals of the numerical standard deviations squared. Numerical nonlinear least-squares regression analysis was performed using ORGIN 6.0 (Microcal Software Inc., USA). The Gibbs free energy of binding was calculated from the KAS value according to the standard equation ΔG°=−RTlnKAS.

Sequences of proteins named here, by UniProt entry; tags and fusion partners are left off. Residues count along the entry.
UniProt P63073, 28-217: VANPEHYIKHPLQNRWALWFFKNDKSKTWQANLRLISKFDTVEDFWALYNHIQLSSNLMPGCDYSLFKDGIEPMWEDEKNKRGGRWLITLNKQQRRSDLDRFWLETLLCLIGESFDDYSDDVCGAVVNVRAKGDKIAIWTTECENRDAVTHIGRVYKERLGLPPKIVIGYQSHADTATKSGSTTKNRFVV

What does the source list for m^7GpsppG (D2) [Compound 3b]?
ΔG° (binding free energy calculated from KAS): -9.39 ± 0.01 kcal/mol; KAS: 10.0 ± 0.2 µM⁻¹; KAS (listed as m^7GpsppG (D2)): 10.0 ± 0.2 µM⁻¹

— patent US8153773B2, “Synthesis and use of anti-reverse phosphorothioate analogs of the messenger RNA cap” (Board of Supervisors of Louisiana State University and …, priority 2007, dated 2012)
